# Source: PubChem BioAssay (National Center for Advancing Translational Sciences (NCATS))
# miR-21 reporter: raises the signal of a miR-21 reporter; 340,000 tested, under 10 active; HeLa miR-21 FLuc reporter, luciferase, 48 h; Potency, µM (highest dose often 38.3 µM), without a hit: top-dose reporter change, positive = more light; active = well fitted rising curve with a large enough effect; inconclusive = small, poorly fitted or top-dose-only effect; inactive = no such curve, though single readings can be large or run the other way;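 also: % of control where 0% means no effect; miR-21 action dims this reporter so a rising signal means less miR-21 action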
#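 Luminescence from a firefly luciferase reporter carrying a miR-21 binding site downstream, stably expressed under a CMV promoter in HeLa cells that make miR-21 endogenously, reports miRNA modulation after 48 h compound exposure up to approximately 40uM final.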
# Nrf2 activator: activators of Nrf2 (ARE) signaling | AREc32 ARE-luciferase reporter (MCF7-derived line), luminescence, 24 h | Potency, µM (highest dose often 46.1 µM), for the others: top-dose activation, hits mostly activators | actives 0.31% (n = 410,000) | AID 624171; note: potency is the fitted concentration of half-maximal effect; % of control where 0% means no effect; nearly all actives have a fitted effect of over 65% in size
#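 For detection, Steady-Glo was added and plates sat 30 min at RT; before that, AREc32_Fluc cells grown overnight in OPTI-MEM/5% FBS had been treated with 23 nL compound for 24 hr at 37 deg C.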
# TSG101-PTAP inh: blocks PTAP/TSG101 interaction to inhibit HIV-1 budding; Potency, µM (highest dose often 115 µM), without a hit: at the top dose activity change, negative = inhibition, hits mostly inhibitors; Fluorescence polarization, FITC-PTAP peptide / Tsg101 binding; Q99816; AID 493005; 340,000 tested, under 10 active; active = well fitted inhibition curve with a large enough effect in the main read-out, with a control signal flat, not every such curve was filed as active; inconclusive = small, poorly fitted or top-dose-only effect, or effect the other way, or a change in a side signal; inactive = no such curve, though single readings can be large or run the other way; note: potency is the fitted concentration of half-maximal effect; % of control where 0% means no effect
#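 Fluorescence anisotropy tracks displacement of a FITC-tagged PTAP peptide (50 nM) from the Tsg101 binding domain (10 uM), following a 20 min room-temperature incubation at pH 7.5.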
# A549 tox-1: A549 cytotoxicity, counter-screen for Nrf2 inhibitors. A549 ARE-Fluc cells, CellTiter-Fluor viability, 18-24 h. Potency, µM (series often up to 46 µM), for inactives: top-dose activity change, negative = cytotoxicity, usual class: inhibitors. actives 0.16% (n = 390,000); note: potency is the fitted concentration of half-maximal effect; % is set by controls: 0 for no effect and ±100 for the full control effect
#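 A549 ARE_Fluc cells in 5% FBS OPTI-MEM were exposed to compounds in concentration-response for 18-24 h at 37 deg C. Viability was read by CellTiter-Fluor fluorescence (Ex 405/Em 525) after 30 min, before the luciferase read.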
# Glioma ERSR ind: ER stress response induction in glioma | AID 602332 | U87-MG GRP78 promoter luciferase reporter, 16 h | actives 0.02% (n = 420,000) | Potency, µM, for the others: at the highest dose activation, most hits filed as activators; note: potency is the fitted concentration of half-maximal effect; series mostly up to about 76 µM; % of control where 0% means no effect; nearly all actives have a fitted effect of over 35% in size
#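 ERSR induction read as luciferase luminescence (Bright-Glo, 10 min at room temperature) in stably transfected human U87-MG glioma cells exposed to compounds for 16 h, using GRP78 as sensor.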
# Nrf2 block: Nrf2 pathway inhibition; Potency, µM (top dose mostly 46 µM), for the others: at the top dose activity change, negative = inhibition, usual class: inhibitors; A549 ARE-Fluc reporter, luciferase luminescence, 18-24 h; actives 2.1% (n = 360,000); AID 504444; note: potency is the fitted concentration of half-maximal effect; % is set by controls: 0 for no effect and ±100 for the full control effect; nearly all actives have a fitted effect of over 60% in size
#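 Reporter: ARE-Fluc in A549. Exposure: 18-24 h, 37 °C, 5% CO2, 5% FBS OPTI-MEM. Readouts: fluorescent cytotoxicity (CellTiter-Fluor), then luminescent Nrf2 signal after BugLite.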
# FLuc enzyme inh: firefly luciferase inhibition, Nrf2 hit validation; shares compounds with Nrf2 block; purified firefly luciferase, luminescence inhibition; actives 4% (n = 1,400); Potency, µM (doses to about 57.5 µM), for the others: at the highest dose activity change, negative = inhibition, most hits filed as inhibitors; AID 720522; note: potency is the fitted concentration of half-maximal effect; % is set by controls: 0 for no effect and ±100 for the full control effect; nearly all actives have a fitted effect of over 65% in size
# A549 tox-2: counter-screen for Nrf2 inhibitors: cytotoxicity in A549 ARE cells | Potency, µM (top dose mostly 46.1 µM), for inactives: top-dose activity change, negative = cytotoxicity, usual class: inhibitors | A549 ARE-Fluc cells, cytotoxicity counterscreen | actives 2% (n = 1,400) | shares compounds with Nrf2 block;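 note: potency is the fitted concentration of half-maximal effect; cells exposed to compounds for 18 to 24 hours; % is set by controls: 0 for no effect and ±100 for the full control effect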
# ARE-Fluc inh: reduces Nrf2 ARE reporter signal in A549 cells. actives 74% (n = 1,400). shares compounds with Nrf2 block. AID 720524. A549 ARE-firefly luciferase reporter, luminescence. Potency, µM (top dose mostly 46.1 µM), for inactives: top-dose activity change, negative = inhibition, actives largely listed as inhibitors; note: potency is the fitted concentration of half-maximal effect; % is set by controls: 0 for no effect and ±100 for the full control effect; nearly all actives have a fitted effect of over 65% in size
# * = called active by the depositor; ? = inconclusive; / = no result shown; [ ] = another dose, or the depositor's remark. Sampled rows, rich in hits. Any-hit rate of the full collection: about 2.1%. Unless noted, calls come from the whole dose curve; as a rule, active = well fitted curve in the direction sought with a large enough effect; inconclusive = small, poorly fitted or top-dose-only effect, or another doubt; inactive = no such curve, though single readings can be large; an effect the other way counts as inactive or inconclusive.
# Order of results: Nrf2 activator	FLuc enzyme inh	miR-21 reporter	Nrf2 block	ARE-Fluc inh	Glioma ERSR ind	A549 tox-1	TSG101-PTAP inh	A549 tox-2
1) Cn1c(-c2ccccn2)[n+](C)c2ccccc21
    -1%	0%	-1%	5.2µM*	10µM*	-6%	-8%	-3%	-1%
2) Cn1c(-c2cccc([N+](=O)[O-])c2)[n+](C)c2ccccc21
    -1%	/	23%	?	/	-5%	-11%	2%	/
3) COc1ccc(-c2ocnc2C(=O)NCc2nn(-c3ccccc3)nc2C)cc1
    0%	-2%	16%	2.9µM*	5.8µM*	-2%	4%	0%	-6%
4) COc1ccc(CC(=O)NCc2nn(-c3ccccc3)nc2C)cc1OC
    -1%	/	0%	-7%	/	-3%	12%	-2%	/
5) O=C(Nc1nc(-c2ccccn2)cs1)c1cc(Cl)ccc1[N+](=O)[O-]
    ?	15µM*	10%	4.1µM*	1.8µM*	-2%	?	-3%	-27%
6) COc1cccc(C(=O)Nc2c(C(=O)NC(C)(C)C)oc3ccccc23)c1
    0%	1%	-5%	?	-16%	-4%	6%	/	-14%
7) COc1ccc(CCNC(=O)C(C)n2nc(C)c3c(C)n(-c4ccc(C)cc4)nc3c2=O)c(OC)c1 (stereo not given)
    -1%	1%	30%	5.8µM*	5.8µM*	-2%	?	-5%	-10%
8) C[N+]1(CC(=O)c2ccc(O)c(O)c2)CCOCC1
    /	/	/	/	/	-3%	/	/	/
9) O=C(NC1CCCc2ccccc21)c1cn2ccccc2n1 (stereo not given)
    4%	/	-27%	20%	/	17%	2%	-6%	/
10) Cc1nc2ccccn2c1C(=O)NC1CCCc2ccccc21 (stereo not given)
    2%	0%	14%	1.6µM*	4.6µM*	-3%	3%	-3%	-7%
11) CCc1ccc2[nH]c(=O)c(CN(CCN(C)C)C(=O)Nc3ccccc3OC)cc2c1
    0%	/	-8%	-5%	/	-2%	3%	-2%	/
12) CCc1ccc2[nH]c(=O)c(CN(Cc3ccccc3)C(=O)Nc3ccccc3OC)cc2c1
    1%	0%	11%	7.3µM*	?	0%	-23%	-3%	-26%
13) O=C(/C=C/c1ccc(S(=O)(=O)N2CCOCC2)cc1)N1CCN(c2ccccc2)CC1
    -1%	1%	5%	5.8µM*	?	-4%	1%	-1%	0%
14) C/C(Cl)=C\Cn1c(NCCc2ccccc2)nc2c1c(=O)n(C)c(=O)n2C
    0%	1%	7%	2.9µM*	7.3µM*	-4%	-16%	-1%	-11%
15) C=CCn1c(NCCc2ccccc2)nc2c1c(=O)n(C)c(=O)n2C
    0%	2%	12%	9.2µM*	/	-5%	-9%	-1%	4%
16) Cn1c(=O)c2c(nc(NCCc3ccccc3)n2CC(=O)NCCc2ccccc2)n(C)c1=O
    0%	/	0%	-2%	/	-3%	0%	-3%	/
17) CCN(CC)CCNc1nc2c(c(=O)n(C)c(=O)n2C)n1C/C=C(/C)Cl
    0%	/	10%	11%	/	-3%	-8%	1%	/
18) COc1ccc(C(=O)N=c2nc(-c3ccccc3)n(-c3ccccc3)s2)cc1
    /	/	/	8%	/	-4%	12%	/	/
19) Cc1cccc(NC(=O)C2CCN(S(=O)(=O)c3cccc4nsnc34)CC2)c1
    -1%	/	12%	?	/	-4%	1%	-3%	/
20) O=C(Nc1cccc(F)c1)C1CCN(S(=O)(=O)c2cccc3nsnc23)CC1
    1%	1%	5%	0.0082µM*	-27%	-3%	-16%	/	-6%

# Some entries already given, reduced to Glioma ERSR ind.
no.	mol	Glioma ERSR ind
10	Cc1nc2ccccn2c1C(=O)NC1CCCc2ccccc21 (stereo not given)	-3%
11	CCc1ccc2[nH]c(=O)c(CN(CCN(C)C)C(=O)Nc3ccccc3OC)cc2c1	-2%

# Of the compounds above, these have an NH in an aromatic ring.
# Order of results: Nrf2 activator	FLuc enzyme inh	miR-21 reporter	Nrf2 block	ARE-Fluc inh	Glioma ERSR ind	A549 tox-1	TSG101-PTAP inh	A549 tox-2
11) CCc1ccc2[nH]c(=O)c(CN(CCN(C)C)C(=O)Nc3ccccc3OC)cc2c1
    0%	/	-8%	-5%	/	-2%	3%	-2%	/
12) CCc1ccc2[nH]c(=O)c(CN(Cc3ccccc3)C(=O)Nc3ccccc3OC)cc2c1
    1%	0%	11%	7.3µM*	?	0%	-23%	-3%	-26%

# Other entries.
# Order of results: Nrf2 activator	FLuc enzyme inh	miR-21 reporter	Nrf2 block	ARE-Fluc inh	Glioma ERSR ind	A549 tox-1	TSG101-PTAP inh	A549 tox-2
21) CCCCN(CCCC)CC(O)c1cc(Cl)cc2c1-c1ccc(Cl)cc1C2=Cc1ccc(Cl)cc1 (stereo not given)
    /	/	/	/	/	-5%	/	/	/
22) COc1cc(OC)cc(-c2cc3nc(C)c(CCC(=O)Nc4ccc(F)c(Cl)c4)c(C)n3n2)c1
    -5%	?	?	2.1µM*	5.8µM*	-10%	-1%	/	-5%
23) COc1ccc(N(C(C)C(=O)N2CCC(Cc3ccccc3)CC2)S(C)(=O)=O)cc1 (stereo not given)
    0%	3%	7%	6.5µM*	18µM*	2%	-20%	0%	-8%
24) COc1ccccc1/C=C/C(=O)N1CCc2cc(OC)c(OC)cc2C1C (stereo not given)
    0%[9.22 µM]	2%	2%	?	7.3µM*	-4%	-11%	-2%	-6%
25) CN(C)c1ccc(/C=C/c2ccc3ccccc3n2)cc1
    -3%	/	?	?	/	-15%	?	-5%	/
26) CN(C)c1ccc(/C=C/c2cc(/C=C/c3ccc(N(C)C)cc3)c3ccccc3n2)cc1
    /	0.17µM*	/	/	0.58µM*	-10%	/	/	-12%
27) CN(C)c1ccc(/C=C/c2ccc3cc(N(C)C)ccc3n2)cc1
    /	/	/	/	/	2%	/	/	/
28) CN(C)c1ccc(/C=C/c2cccc3cc4ccccc4nc23)cc1
    /	19µM*	/	/	1.6µM*	-9%	/	/	?
29) Cc1nc(NCC(=O)c2c[nH]c3ccccc23)sc1C
    /	/	/	/	/	1%	/	/	/
30) COc1ccc(SCCN2CCN(CCc3ccccc3)CCC2=O)cc1
    /	/	/	19%	/	-10%	-17%	/	/
31) CCCN1CNc2c(c(=O)[nH]c(=S)n2CCc2c(OC)cccc2OC)C1
    /	/	/	-4%	/	/	0%	/	/
32) CCOc1cc(/C=N\NC(=O)c2ccc(NC(=O)C(C)(C)C)cc2)ccc1OC(=O)c1cccc(C)c1
    -1%	0%	10%	5.2µM*	15µM*	1%	-3%	-1%	-3%
33) CC(C(=O)c1ccccc1)[n+]1cccc(Cl)c1 (stereo not given)
    /	/	/	/	/	0%	/	/	/
34) O=c1[nH]cc(C#Cc2ccccc2)c2ncncc12
    /	/	/	?	/	/	4%	/	/
